The record followed here is patent US11987572B2, “Therapeutic compounds and methods of use thereof” (REGENTS OF THE UNIVERSITY OF MINNESOTA, priority 2019, dated 2024).

For this test, the target named is T1, His9-BRD4 D1 (Homo sapiens, UniProt O60885).
T1 construct: 7.5-60 nM for His9-tagged BRD4 D1; made in house; host or cells: E. coli BL21(DE3) with pRARE
The experiment in a line: AlphaScreen assay with His9-BRD4 D1. Type of test: binding. In general terms: Alpha assays give light when donor and acceptor beads are brought close together.

As a reminder, the IC50 is the point on the concentration scale where inhibition reaches its midpoint. Lower therefore signals inhibition by little substance. `Cc1cc(C)cc(Oc2nccc(-c3c(-c4ccc(I)cc4)ncn3C3CCNCC3)n2)c1` showed an IC50 of 170 nM.
